{
  "source": "patent US20120046224A1",
  "about": "“TREATMENT OF DIABETES AND METABOLIC SYNDROME” (NORDIC BIOSCIENCE A/S, priority 2009, published 2012)",
  "origin": "cited, not measured here",
  "test_system": "rat hepatocytes",
  "conditions": "cited from earlier work",
  "data": [
    {"substance": "calcitonin gene related peptide", "values": [
      {"measurement": "effect on rat hepatocytes and other cells", "value": "little effect"}
    ]}
  ]
}
